This is an account of results in patent US9006244B2, “Liver X receptor modulators” (priority 2012, dated 2015).

Chains of the proteins cited; added tags and fusions are not shown. Residues count along the entry.
UniProt P55055, 222-460: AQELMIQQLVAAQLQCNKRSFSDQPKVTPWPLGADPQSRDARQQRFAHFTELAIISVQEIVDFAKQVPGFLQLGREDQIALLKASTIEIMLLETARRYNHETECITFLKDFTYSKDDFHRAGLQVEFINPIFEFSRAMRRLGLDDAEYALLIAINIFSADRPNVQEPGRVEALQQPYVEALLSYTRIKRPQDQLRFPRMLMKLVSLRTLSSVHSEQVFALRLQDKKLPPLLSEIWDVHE

The target in assay [1] is LXRβ ligand binding domain (LBD) (Homo sapiens (Human), UniProt P55055). Put plainly: LXR β radioligand binding assay (SPA, [3H]TO901317 competition). As for the experimental part: Poly-lysine SPA beads (50 μg) were added to each well and the total volume was adjusted to 120 μL. The plates were shaken on an orbital shaker for 20 min and then allowed to settle for 10 more minutes at rt before a brief centrifugation at 2,000 rpm for 1 min.

The next assay addresses LXRβ (Homo sapiens (Human), UniProt P55055). Put plainly: LXR luciferase transcriptional reporter gene assay, Gal4-LXRβ LBD in HEK293 cells. Format: cell-based. The settings on record: pG5-Luc luciferase reporter, 16 h, read-out: LXRβ CELL EC50. A general note: A reporter such as luciferase makes a cellular process visible.

One may read the Ki as the dissociation constant of the complex between target and ligand, obtained from inhibition or displacement. By EC50 is commonly meant the concentration that produces a half-maximal response. `CC(C)[C@H]1c2cc3ccc(S(C)(=O)=O)cc3n2CCN1c1nccc(C(F)(F)F)n1` (single isomer, unassigned) [Compound E3b, 1-isopropyl-7-(methylsulfonyl)-2-(4-(trifluoromethyl)pyrimidin-2-yl)-1,2,3,4-tetrahydropyrazino[1,2-a]indole] gave a Ki in assay [1] of 1750 nM. Besides, the EC50 at LXRβ was above 20000 nM.
`CC(C)[C@@H]1c2cc3ccc(S(C)(=O)=O)cc3n2CCN1c1nccc(C(F)(F)F)n1` (single isomer, unassigned) [Compound E3a, 1-isopropyl-7-(methylsulfonyl)-2-(4-(trifluoromethyl)pyrimidin-2-yl)-1,2,3,4-tetrahydropyrazino[1,2-a]indole] returned a Ki in assay [1] of 27 nM. Further, the EC50 on LXRβ was found to be 87 nM.
